Source: paper PMC11052790 (Clinical Pharmacokinetics, 2024)

The chains behind the UniProt entries cited, without tags or fusion partners.
UniProt P33261, whole entry: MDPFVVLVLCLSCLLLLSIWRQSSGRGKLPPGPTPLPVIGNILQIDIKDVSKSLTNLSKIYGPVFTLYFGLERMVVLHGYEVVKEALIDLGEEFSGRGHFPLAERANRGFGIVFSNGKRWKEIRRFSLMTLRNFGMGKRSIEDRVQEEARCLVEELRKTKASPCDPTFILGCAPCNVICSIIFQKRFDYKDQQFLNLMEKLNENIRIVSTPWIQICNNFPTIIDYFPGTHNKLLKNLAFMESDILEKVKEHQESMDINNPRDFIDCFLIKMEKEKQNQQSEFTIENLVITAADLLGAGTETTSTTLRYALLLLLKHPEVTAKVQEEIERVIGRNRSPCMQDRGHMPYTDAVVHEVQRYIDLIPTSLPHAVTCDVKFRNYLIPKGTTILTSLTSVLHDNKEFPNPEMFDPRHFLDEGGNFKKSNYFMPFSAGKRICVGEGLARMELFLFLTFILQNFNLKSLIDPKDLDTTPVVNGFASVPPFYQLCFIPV

Molecular target: CYP2C19 (Homo sapiens, UniProt P33261)
Details: days 4 and 5 of ritonavir treatment vs baseline

## COc1ccc2[nH]c([S+]([O-])Cc3ncc(C)c(OC)c3C)nc2c1 (stereo not shown) [Omeprazole, omeprazole]
  Reduction of molar AUC0–4 ratio of omeprazole and 5-OH-omeprazole: 32%
